Source: US10132810B2, “Method for assessing and predicting efficacy of breast cancer treatment with a long-acting topoisomerase I inhibitor” (priority 2012, dated 2018)

Conditions: SN-38 exposure, versus irinotecan

## Pentaerythritolyl-4-Arm-(PEG-1-Methylene-2 Oxo-Vinylamino Acetate linked-Irinotecan)-20K
  maximal concentrations compared to irinotecan: five- to ten-times less
